Key:
vasopressin V1a receptor [1] = biological target: T1, vasopressin V1a receptor (Homo sapiens, UniProt P37288); assay: inhibition of AVP-induced platelet aggregation in human platelet-rich plasma; type: cell-based; design: from tissue; host or cells: human blood platelets (platelet-rich plasma or washed platelets); details: AVP 30 nM, indomethacin 3 μM
vasopressin V1a receptor [2] = biological target: T1, vasopressin V1a receptor; assay: inhibition of AVP-induced aggregation of washed platelets; type: cell-based; design: from tissue; host or cells: human blood platelets (platelet-rich plasma or washed platelets); details: AVP 30 nM, fibrinogen 0.2 mg/mL, calcium chloride 1 mM
vasopressin V1a receptor [3] = biological target: T1, vasopressin V1a receptor; assay: human vasopressin V1a receptor binding, [3H]PMP-AVP, hV1a (CHO) cell membranes; design: expressed in transfected cells; host or cells: CHO (hV1a cell line), membrane preparation; details: [3H]PMP-AVP 0.2 nM, read-out: BINDING AFFINITY (IC50 (nM))
Description: The human vasopressin V1a receptor has been cloned and expressed (Thibonnier et al., Journal of Biological Chemistry, 269, 3304-3310 (1994)). The nucleotide sequence has been deposited in the EMBL Databank under accession number Z11690.
The hV1a cell line was grown in alpha-MEM (alpha modification of Minimum essential medium Eagle, Sigma, St. Louis, Mo., USA) with 10% fetal bovine serum and 250 μg/ml G418 (Gibco, Grand Island, N.Y., USA). To prepare membranes, hV1a cells were grown to confluency in 20 roller bottles. Cells were dissociated with enzyme-free cell dissociation medium (Specialty Media, Lavallette, N.J., USA) and centrifuged at 2500 rpm for 10 minutes. The pellet was resuspended in 40 mL of Tris-HCl (tris[hydroxymethyl]aminomethane hydrochloride) buffer (50 mM, pH 7.4) and homogenized for 1 minute with a Tekmar Tissumizer (Cincinnatti, Ohio USA). The suspension was centrifuged at 40,000×g for 10 minutes. The pellet was resuspended and centrifuged as above. The final pellet was suspended in 80 mL of Tris 7.4 buffer and stored in 4 mL aliquots at −80° C. For assay, aliquots were resuspended in assay buffer and diluted to 125 μg protein per mL. Protein concentration was determined by BCA assay (Pierce, Rockford, Ill., USA).
Assay buffer was prepared by adjusting the pH of a solution of 50 mMol HEPES (N-2-Hydroxyethylpiperazine-N′-2-ethanesulfonic acid, Sigma, St. Louis, Mo., USA), 5 mMol MgCl2, and 1 mMol dithiothreitol pH 7.4 with NaOH, after which 40 μg/mL bacitracin and 10 μg/mL aprotinin were added. The radioligand for binding assays was [^3H]PMP-AVP (Manning vasopressin antagonist, 56 Ci/mMol, DuPont NEN, Boston, MA, USA). […] The filters were washed with ice-cold 50 mM Tris-HCl (pH 7.7 at 25° C.) and the filter circles were placed in scintillation vials, to which were then added 5 mL Ready Protein Plus scintillation fluid, and counted in a liquid scintillation counter. […] IC50 values were calculated by nonlinear least-squares curve-fitting to a 4-parameter logistic model.

Amino acid sequences for entries named in this document (tags omitted).
UniProt P37288, whole entry: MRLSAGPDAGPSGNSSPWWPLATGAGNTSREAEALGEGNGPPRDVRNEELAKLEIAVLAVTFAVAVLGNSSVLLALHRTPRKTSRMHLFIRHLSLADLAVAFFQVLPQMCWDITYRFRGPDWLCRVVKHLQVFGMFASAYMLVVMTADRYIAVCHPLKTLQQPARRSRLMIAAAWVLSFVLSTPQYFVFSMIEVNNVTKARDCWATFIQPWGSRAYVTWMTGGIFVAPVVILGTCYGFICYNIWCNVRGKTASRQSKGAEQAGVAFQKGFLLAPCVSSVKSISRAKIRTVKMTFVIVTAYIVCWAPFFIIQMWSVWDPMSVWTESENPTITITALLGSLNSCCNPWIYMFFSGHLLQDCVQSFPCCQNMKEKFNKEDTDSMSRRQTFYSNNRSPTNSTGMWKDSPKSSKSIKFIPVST

SMILES | IC50 (vasopressin V1a receptor [1]) | IC50 (vasopressin V1a receptor [2]) | IC50 (vasopressin V1a receptor [3])
CC1(C(C(=O)NCc2ccccc2)N2C(=O)C(N3C(=O)OCC3c3ccccc3)C2C=Cc2ccccc2)OCCO1 [Example 30, N-[Benzyl]-2-[(1,1-ethyleneketal)acetyl]-2-[3(S)-(4(S)-phenyloxazolidin-2-on-3-yl)-4(R)-(2-styryl)-azetidin-2-on-1-yl)acetamide] | 630 nM | 48 nM | 43 nM
CC(C)CC(C(=O)OCc1ccccc1)N1C(=O)C(N2C(=O)OCC2c2ccccc2)C1C=Cc1ccccc1 [Example 7, Benzyl 2-(S)-isobutyl-2-[3(S)-(4(S)-phenyloxazolidin-2-on-3-yl)-4(R)-(2-styryl)-azetidin-2-on-1-yl]acetate] | – | – | 39 nM
CC(C)(C)C(O)C(C(=O)OCc1ccccc1)N1C(=O)C(N2C(=O)OCC2c2ccccc2)C1C=Cc1ccccc1 (mixture of isomers) [Example 38, Benzyl 2(R,S)-[1-hydroxy-2,2-dimethylpropyl]-2-[3(S)-(4(S)-phenyloxazolidin-2-on-3-yl)-4(R)-(2-styryl)-azetidin-2-on-1-yl]acetate] | – | – | 10 nM

— patent publication US6521611B2 (Eli Lilly and Company, priority 1996, dated 2003)
